In paper PMC10531346, “Structural Similarities and Overlapping Activities among Dihydroflavonol 4-Reductase, Flavanone 4-Reductase, and Anthocyanidin Reductase Offer Metabolic Flexibility in the Flavonoid Pathway” (International Journal of Molecular Sciences, 2023):
Like-named read-outs stand apart in the source and are kept apart here.

Amino acid sequences for entries named in this document (tags omitted).
UniProt C5YGL7, entry or part of it: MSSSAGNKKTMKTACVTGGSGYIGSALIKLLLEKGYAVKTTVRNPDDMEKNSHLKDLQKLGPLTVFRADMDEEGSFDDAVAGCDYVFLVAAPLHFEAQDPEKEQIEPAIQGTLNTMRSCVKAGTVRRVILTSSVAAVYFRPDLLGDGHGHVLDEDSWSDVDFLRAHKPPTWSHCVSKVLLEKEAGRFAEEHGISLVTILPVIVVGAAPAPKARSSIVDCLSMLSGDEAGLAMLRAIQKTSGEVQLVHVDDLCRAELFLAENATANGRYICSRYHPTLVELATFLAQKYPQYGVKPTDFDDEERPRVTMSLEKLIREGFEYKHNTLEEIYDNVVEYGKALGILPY
UniProt A0A8T0SQV2, entry or part of it: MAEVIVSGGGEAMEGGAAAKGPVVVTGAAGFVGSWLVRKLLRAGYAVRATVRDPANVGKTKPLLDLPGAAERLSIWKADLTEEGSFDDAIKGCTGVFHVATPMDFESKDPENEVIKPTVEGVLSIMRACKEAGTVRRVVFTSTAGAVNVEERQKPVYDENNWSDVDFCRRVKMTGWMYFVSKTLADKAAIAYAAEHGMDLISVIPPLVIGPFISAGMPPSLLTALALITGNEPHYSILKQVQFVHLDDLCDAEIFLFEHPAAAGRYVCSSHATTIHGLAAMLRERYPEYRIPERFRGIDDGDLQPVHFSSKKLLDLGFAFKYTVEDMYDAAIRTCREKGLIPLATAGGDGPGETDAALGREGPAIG

Tests used:
SbFNR1 = SbFNR1 (Sorghum bicolor, UniProt C5YGL7); experiment: Isothermal titration calorimetry, SbFNR1; format: binding; conditions: ITC
PvDFRa = PvDFRa (Panicum virgatum, UniProt A0A8T0SQV2); experiment: Isothermal titration calorimetry, PvDFRa; format: binding; conditions: ITC

With NADP^+ the Kd (SbFNR1) was 13900 ± 2720 nM, the Kd (PvDFRa; 298 K, pH 6.5) was 180 ± 60 nM and the Kd (PvDFRa; read-out: dissociation constant) was 185 nM.
